# scFv variants of Ab-95 (light chain) against a SARS-CoV-2 spike peptide

Antigen: PDVDLGDISGINAS, a 14-residue peptide of the SARS-CoV-2 spike HR2 region.

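Phage display of a naive human antibody library on the peptide gave the parent. The library (AAYL52) carries one to three amino acid substitutions per variant, with no insertions or deletions. Affinity was read by AlphaSeq, a pooled yeast mating assay with surface-displayed partners. The frequency of each diploid, read from paired DNA barcodes, reflects how well the two displayed proteins bind. Scores were corrected for input abundance and mapped to Kd with protein pairs of known affinity run in the same pool. The assay was run in three technical replicates.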

Each scFv is VH, a (GGGGS)3 linker, VL, as in the parent Ab-95, and differs from it in the CDRs of the light chain only.
VH: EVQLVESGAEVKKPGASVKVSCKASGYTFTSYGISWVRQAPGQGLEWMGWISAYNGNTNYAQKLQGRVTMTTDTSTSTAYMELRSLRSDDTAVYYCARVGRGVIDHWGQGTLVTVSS
VL: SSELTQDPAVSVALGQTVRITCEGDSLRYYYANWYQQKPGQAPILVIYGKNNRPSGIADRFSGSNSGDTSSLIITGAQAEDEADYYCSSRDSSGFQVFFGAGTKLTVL

Variants are written as CDR1, CDR2 and CDR3 of the light chain (limits as in the source). Parent: EGDSLRYYYAN, GKNNRPS, SSRDSSGFQVF.
The read-out is the apparent dissociation constant on a log10 scale (nM): the lower, the stronger.
A pair that was not seen in that replicate is written "nd"; this usually means weak binding, but a binder can also be missed.

{"CDR-L1": "EGDSLRAYYAN", "CDR-L2": "GKNNEPS", "CDR-L3": "SSRDSSGFFVF", "log10 Kd (nM) by replicate": "3.75 4.52 3.50", "signal with controls": "7 of 9 (4.21)"}
{"CDR-L1": "EGDSLRYYYAN", "CDR-L2": "GKNNRPS", "CDR-L3": "SSRDSYGFQVT", "log10 Kd (nM) by replicate": "4.58 3.51 nd", "signal with controls": "2 of 9 (3.62)"}
{"CDR-L1": "EGDSLRYTYAC", "CDR-L2": "GKNNRPS", "CDR-L3": "SSRDSSGFQVY", "log10 Kd (nM) by replicate": "5.27 3.46 3.39", "signal with controls": "3 of 9 (3.99)"}
{"CDR-L1": "NGDSLRYYYAN", "CDR-L2": "GKNNRPS", "CDR-L3": "SSRDSSMFKVF", "log10 Kd (nM) by replicate": "nd nd nd", "signal with controls": "0 of 9"}
{"CDR-L1": "EGTSLRYYYAN", "CDR-L2": "GKNNRPS", "CDR-L3": "SSADSSGFQVF", "log10 Kd (nM) by replicate": "3.42 nd nd", "signal with controls": "3 of 9 (3.78)"}
{"CDR-L1": "EGDSLRIYYAN", "CDR-L2": "RKNNRPS", "CDR-L3": "SSRDSSWFQVF", "log10 Kd (nM) by replicate": "4.36 4.29 4.37", "signal with controls": "6 of 9 (3.71)"}
{"CDR-L1": "EGDSLGIYYAN", "CDR-L2": "GKNNRPY", "CDR-L3": "SSRDSSGFQVF", "log10 Kd (nM) by replicate": "2.85 2.75 3.69", "signal with controls": "2 of 9 (3.72)"}
{"CDR-L1": "EGDSLRYYYAN", "CDR-L2": "PKSNPPS", "CDR-L3": "SSRDSSGFQVF", "log10 Kd (nM) by replicate": "3.85 nd nd", "signal with controls": "3 of 9 (3.62)"}
{"CDR-L1": "EGDSLGYYYAN", "CDR-L2": "GKNNRFL", "CDR-L3": "SSRDSSGFQVF", "log10 Kd (nM) by replicate": "2.82 2.76 3.86", "signal with controls": "2 of 9 (3.25)"}
{"CDR-L1": "EGDSLRYYTAN", "CDR-L2": "GNNNRPS", "CDR-L3": "PSRDSSGFQVF", "log10 Kd (nM) by replicate": "2.26 2.01 1.71", "signal with controls": "2 of 9 (3.64)"}
{"CDR-L1": "ERDSLRYYPAN", "CDR-L2": "GKNNPPS", "CDR-L3": "SSRDSSGFQVF", "log10 Kd (nM) by replicate": "nd nd nd", "signal with controls": "0 of 9"}
{"CDR-L1": "EGDSLRYYYAD", "CDR-L2": "GWNNRPS", "CDR-L3": "SSRDSMGFQVF", "log10 Kd (nM) by replicate": "nd 3.11 nd", "signal with controls": "3 of 9 (4.16)"}
{"CDR-L1": "EGDSLRYYYAN", "CDR-L2": "GKNNRQS", "CDR-L3": "SSRDSSGFMVF", "log10 Kd (nM) by replicate": "2.92 2.46 2.12", "signal with controls": "2 of 9 (3.25)"}
{"CDR-L1": "EWDSLRYYYFN", "CDR-L2": "GKNNRPS", "CDR-L3": "SSADSSGFQVF", "log10 Kd (nM) by replicate": "nd nd nd", "signal with controls": "1 of 9 (2.78)"}
{"CDR-L1": "EGDSLRYYYAN", "CDR-L2": "GVNNTPS", "CDR-L3": "SARDSSGFQVF", "log10 Kd (nM) by replicate": "4.30 2.78 2.74", "signal with controls": "2 of 9 (4.34)"}
{"CDR-L1": "EGWNLRYYGAN", "CDR-L2": "GKNNRPS", "CDR-L3": "SSRDSSGFQVF", "log10 Kd (nM) by replicate": "3.44 3.04 3.09", "signal with controls": "1 of 9 (3.33)"}
{"CDR-L1": "EGDSLQYYYAF", "CDR-L2": "GKNNRPS", "CDR-L3": "SSRDSVGFQVF", "log10 Kd (nM) by replicate": "nd 4.21 4.33", "signal with controls": "4 of 9 (4.15)"}
{"CDR-L1": "EGDSLRPYYAN", "CDR-L2": "GKNNRPS", "CDR-L3": "SSHDSMGFQVF", "log10 Kd (nM) by replicate": "5.48 nd nd", "signal with controls": "6 of 9 (3.71)"}
{"CDR-L1": "EGDSVRYYYAN", "CDR-L2": "GYNNRPS", "CDR-L3": "NSRDSSGFQVF", "log10 Kd (nM) by replicate": "4.67 4.03 3.60", "signal with controls": "3 of 9 (4.49)"}
{"CDR-L1": "EGDSGRYYYAN", "CDR-L2": "GKNKRPS", "CDR-L3": "SSRDSRGFQVF", "log10 Kd (nM) by replicate": "4.02 4.53 nd", "signal with controls": "5 of 9 (4.05)"}
{"CDR-L1": "EGNSLRYYYAI", "CDR-L2": "GKNNRPS", "CDR-L3": "SSRDSSGFQVF", "log10 Kd (nM) by replicate": "2.14 1.85 1.60", "signal with controls": "4 of 9 (4.04)"}
{"CDR-L1": "EYDSLWPYYAN", "CDR-L2": "GKNNRPS", "CDR-L3": "SSRDSSGFQVF", "log10 Kd (nM) by replicate": "1.73 1.80 1.27", "signal with controls": "6 of 9 (4.42)"}
{"CDR-L1": "EGGSSRYYYAN", "CDR-L2": "GKNNRPS", "CDR-L3": "SSRKSSGFQVF", "log10 Kd (nM) by replicate": "nd 4.13 nd", "signal with controls": "2 of 9 (3.88)"}
{"CDR-L1": "EGDSLRYYYAN", "CDR-L2": "GECNRPS", "CDR-L3": "SSRDSSGFQVS", "log10 Kd (nM) by replicate": "nd nd nd", "signal with controls": "2 of 9 (3.78)"}
{"CDR-L1": "EGDSLQYYYAM", "CDR-L2": "GKNNRPS", "CDR-L3": "SSRDSSGFQVT", "log10 Kd (nM) by replicate": "4.62 5.44 nd", "signal with controls": "4 of 9 (4.13)"}
{"CDR-L1": "EGDSLRYYYAN", "CDR-L2": "GKNNRPS", "CDR-L3": "SSRDSSGGQVF", "log10 Kd (nM) by replicate": "2.22 2.28 1.57", "signal with controls": "6 of 9 (4.15)"}
{"CDR-L1": "EGDSLREYYAN", "CDR-L2": "GKNNAPS", "CDR-L3": "SSRDSSGRQVF", "log10 Kd (nM) by replicate": "2.82 2.82 2.45", "signal with controls": "3 of 9 (3.70)"}
{"CDR-L1": "EGDTLRNYYAN", "CDR-L2": "GKNNRPS", "CDR-L3": "SSRDSSGFQWF", "log10 Kd (nM) by replicate": "2.00 1.90 1.78", "signal with controls": "1 of 9 (4.75)"}

A selection of 4 entries from above:

{"CDR-L1": "EGDSLRYYYAN", "CDR-L2": "GVNNTPS", "CDR-L3": "SARDSSGFQVF", "log10 Kd (nM) by replicate": "4.30 2.78 2.74", "signal with controls": "2 of 9 (4.34)"}
{"CDR-L1": "EGNSLRYYYAI", "CDR-L2": "GKNNRPS", "CDR-L3": "SSRDSSGFQVF", "log10 Kd (nM) by replicate": "2.14 1.85 1.60", "signal with controls": "4 of 9 (4.04)"}
{"CDR-L1": "EGDSLRYYYAN", "CDR-L2": "GKNNRPS", "CDR-L3": "SSRDSSGGQVF", "log10 Kd (nM) by replicate": "2.22 2.28 1.57", "signal with controls": "6 of 9 (4.15)"}
{"CDR-L1": "ERDSLRYYPAN", "CDR-L2": "GKNNPPS", "CDR-L3": "SSRDSSGFQVF", "log10 Kd (nM) by replicate": "nd nd nd", "signal with controls": "0 of 9"}

Empty control strains, which show no peptide, gave a signal in 28% of pairings with library AAYL52; the median was 3.91 and 95% of these signals were weaker than 2.90. No background was subtracted. Also given: how often the same scFv was detected with the empty control strains, with their mean in brackets.
For reference, the parent read 2.31 as the reference entry and 2.25 as a member of this library.

The measurements come from Engelhart et al. 2022 (doi:10.1038/s41597-022-01779-4) through the FLAb antibody collection.